Experimental data from PubChem BioAssay AID1631 (National Center for Advancing Translational Sciences (NCATS), 2009).
The list shows a part of the results, in another mix than the full data. Some results for these compounds are left out of this collection, so the calls shown say nothing about other tests. Active and inactive are the calls of the source. Calls follow the shape of the dose curve; as a rule, active = well fitted activation curve with a large enough effect; inconclusive = small, poorly fitted or top-dose-only effect; inactive = no such curve, though single readings can be large or run the other way.

Amino acid sequences for entries named in this document (tags omitted).
UniProt P14618, whole entry: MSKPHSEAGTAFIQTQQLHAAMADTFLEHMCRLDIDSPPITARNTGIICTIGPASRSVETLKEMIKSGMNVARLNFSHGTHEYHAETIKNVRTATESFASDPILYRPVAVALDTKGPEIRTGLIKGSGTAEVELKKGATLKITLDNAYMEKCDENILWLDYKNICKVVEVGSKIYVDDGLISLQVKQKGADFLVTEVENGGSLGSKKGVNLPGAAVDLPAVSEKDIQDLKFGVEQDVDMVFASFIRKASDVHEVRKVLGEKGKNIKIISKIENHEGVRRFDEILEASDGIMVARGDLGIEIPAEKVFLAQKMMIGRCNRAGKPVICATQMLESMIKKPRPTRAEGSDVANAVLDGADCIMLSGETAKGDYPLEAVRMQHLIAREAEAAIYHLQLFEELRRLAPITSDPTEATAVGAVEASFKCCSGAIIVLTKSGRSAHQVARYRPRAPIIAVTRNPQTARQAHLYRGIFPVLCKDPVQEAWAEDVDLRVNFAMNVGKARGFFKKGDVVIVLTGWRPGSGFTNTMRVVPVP

These compounds were tested against Pyruvate kinase PKM (Homo sapiens) (UniProt P14618) (assay: qHTS Assay for Activators of Human Muscle isoform 2 Pyruvate Kinase). Settings: purified PKM2, Kinase-Glo ATP luminescence, 0% is enzyme alone, no compound; at 57.5 µM (top of the series).
From the text: NIH Chemical Genomics Center [NCGC] Matthew G. Vander Heiden, M.D., Ph.D. [Harvard Medical School, 77 Avenue Louis Pasteur, Boston, MA 02115] MLPCN Grant: 1 R03 MH085679-01 NCGC Assay Overview: Human pyruvate kinase muscle 2 (hPK-M2) enzyme was supplied as a highly purified (>95% pure) preparation from Harvard Medical School and assayed for its ability to generate ATP from ADP using phosphoenolpyruvate (PEP) as a substrate. ATP generation was detected in a coupled reaction by luciferase-mediated luminescence, an ATP-dependent process. […] The enzyme was assayed at an intermediate level of activity to screen for both inhibitors and activators.
NCGC Assay Protocol Summary: Three uL of substrate mix (at r.t.) in assay buffer (50 mM Imidazole pH7.2, 50 mM KCl, 7 mM MgCl2, 0.01% Tween 20, 0.05% BSA) was dispensed into white solid bottom 1,536 well microtiter plates so that the final concentrations of substrates in the assay were 0.1 mM ADP and 0.5 mM PEP. 23 nL of compound were delivered by a pin tool and 1 uL of enzyme mix in assay buffer (4 degree Celsius) was added. Plates were incubated at room temperature for 1 hour. Two uL of detection mix (Kinase-Glo, Promega; at 4 degree Celsius protected from light) was added and luminescence read by a ViewLux (Perkin Elmer) at 5 second exposure/plate. Data were normalized to the uninhibited and AC100 inhibition (no enzyme). To monitor activation, the first column contained a titration of the activator, NCGC00031955-01 (16-point 1:2 dilutions in duplicate starting at 57 uM) and the first 16 rows of column 4 contained 57 uM of NCGC00031955-01.
% is scaled to controls: 0 for no effect and ±100 for the full control effect.
Also: nearly all actives have a fitted effect of over 55% in size.

SMILES	activation
COc1cccc(C(=O)NCC2(N3CCCCC3)CCCCC2)c1	inactive: 2.23%
O=C(OC1CN2CCC1CC2)C(CO)(c1ccccc1)c1ccccc1 (stereo not drawn)	inactive: -6.95%
COc1ccc(Br)c(C(=O)NCC2(N3CCCCC3)CCCCC2)c1	inactive: -4.38%
CN(C)c1cccc(C(=O)NCC2(N(C)C)CCCCC2)c1	inactive: -4.13%
O=C(NCC1(N2CCCCC2)CCCCC1)c1cc([N+](=O)[O-])ccc1Cl	inactive: -8.08%
CCN(CC)CC(C)C(C)OC(=O)C(O)(c1ccccc1)c1ccccc1 (stereo not drawn)	inactive: -0.143%
CC(C)N1C(=O)CC2(CCN(CCOC(=O)C(O)(c3ccccc3)c3ccccc3)CC2)C1=O	inactive: -0.0536%
Cc1ccc(C(=O)NCC2(N3CCCCC3)CCCCC2)cc1	inactive: -4.82%
CN(C)C1CCCC1OC(=O)C(O)(c1ccccc1)c1ccccc1 (stereo not drawn)	inactive: 1.58%
Cc1ccccc1C(=O)NCC1(N2CCCCC2)CCCCC1	inactive: 2.35%
O=C(NCC1(N2CCCCC2)CCCCC1)c1cc(F)c(F)cc1Cl	inactive: 1.97%
CCN1CCCC(OC(=O)C2(O)c3ccccc3C=Cc3ccccc32)C1 (stereo not drawn)	inactive: 1.63%
Cc1cc(C(=O)NCC2(N3CCCCC3)CCCCC2)ccc1[N+](=O)[O-]	inactive: -3.3%
